The text below walks through data of patent US9822179B2, “Recombinant TNF ligand family member polypeptides with antibody binding domain and uses therefor” (UNIVERSITAT STUTTGART, priority 2011, dated 2017).

Protein sequences, listed by entry. Tags and fused reporters are not part of them. Residues count along the entry.
UniProt P07724, 25-608: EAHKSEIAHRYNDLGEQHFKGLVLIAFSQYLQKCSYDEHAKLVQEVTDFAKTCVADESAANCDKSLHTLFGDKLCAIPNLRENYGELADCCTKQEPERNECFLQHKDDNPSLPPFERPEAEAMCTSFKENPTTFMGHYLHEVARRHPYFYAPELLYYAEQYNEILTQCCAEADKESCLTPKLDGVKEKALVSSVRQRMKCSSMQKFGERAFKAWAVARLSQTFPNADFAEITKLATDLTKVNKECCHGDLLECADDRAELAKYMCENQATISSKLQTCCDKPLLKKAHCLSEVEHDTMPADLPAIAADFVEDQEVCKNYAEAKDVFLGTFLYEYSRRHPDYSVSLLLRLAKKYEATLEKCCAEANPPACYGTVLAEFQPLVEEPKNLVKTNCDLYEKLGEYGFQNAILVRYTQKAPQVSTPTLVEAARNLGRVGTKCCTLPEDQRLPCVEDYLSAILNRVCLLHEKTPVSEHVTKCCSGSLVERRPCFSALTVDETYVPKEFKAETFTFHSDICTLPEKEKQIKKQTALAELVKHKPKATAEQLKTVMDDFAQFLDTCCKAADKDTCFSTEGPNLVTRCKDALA

The target of data set [1] is mouse serum albumin (MSA) (Mus musculus, UniProt P07724). Kind of data set: Albumin binding assay by size exclusion chromatography, MSA. To be noted: 1 h at RT, equimolar MSA. On the procedure: (§1) Both proteins were incubated for 1 h at RT with equimolar concentrations of human serum albumin (HSA) or mouse serum albumin (MSA) and subsequently separated by size exclusion chromatography. Thyroglobulin (669 kDa), apoferritin (443 kDa), -amylase (200 kDa), bovine serum albumin (67 kDa), carbonic anhydrase (29 kDa) and FLAG peptide (1 kDa) were used as standard proteins/peptides.

Data set [2] has as its target human serum albumin (HSA) (Homo sapiens, UniProt P02768). Kind of data set: Albumin binding assay by size exclusion chromatography, HSA. The following applies: 1 h at RT, equimolar HSA. On the procedure: as §1
In data set [3] the test system is EGFR+ Huh-7 hepatocellular carcinoma cells. Briefly: EGFR-directed induction of cell death in Huh-7 cells, serial dilutions of protein, crystal violet. In kind it is cell-based. The following applies: 250 ng/ml bortezomib, 16 h. As to the method: After 16 h, cell viability was determined using MTT staining (Colo 205) or crystal violet staining (Huh-7) and data were normalized using bortezomib-treated cells as control (mean SEM, n=3). (B) 1×10^4 Colo205 cells per well were grown in 96-well plates using medium with 0.1% FCS. […] (C) 1×10^4 Huh-7 cells per well were grown in 96-well plates and treated with 20 ng/ml bortezomib or with a combination of bortezomib and 10 μM zVADfmk.
After 16 h, cell viability was determined using crystal violet staining. […] The values for SEQ ID NO: 102 were plotted in both panels for comparison.
As a positive control, cells were killed with 0.25% Triton X-100. Cell death assays with Huh-7 and HepG2 cells were performed in the absence (FIG. 6, Jurkat cells) or presence of Bortezomib (FIG. 7, Huh-7: 250 ng/ml, FIG. 6, HepG2: 500 ng/ml, FIG. 18, Huh-7: 250 ng/ml), Selleck Chemicals, Houston, Tex.). Bortezomib was added 30 min prior incubation with the proapoptotic ligands to sensitize cells for the induction of cell death (FIGS. 6, 7). Alternatively, cells were preincubated for 30 min with the indicated concentrations of TRAIL fusion proteins followed by addition of serial dilutions of Bortezomib (FIG. 8). TRAIL only treated cells are shown in each panel for the applied TRAIL concentration (Bortezomib 0 ng/ml) (FIG. 8). After 16 h incubation, cell viability was determined either by crystal violet staining (Huh-7, HepG2) or the MTT method (Jurkat) (Wuest et al., 2002). In the latter case a lysis buffer consisting of 15% SDS in DMF/H2O (1:1), pH 4.5 (with […]) acetic acid) was used.

Data set [4] is described as follows: Pharmacokinetics in CD1 mice, 25 μg i.v., ELISA of serum samples. Type of data set: in vivo. On the procedure:
25 μg of protein were injected i.v. in CD1 mice and serum samples were taken at the depicted time points followed by detection of scTRAIL molecules via ELISA.
To this end, 25 μg of fusion proteins were injected i.v. in CD1 mice and serum samples were analyzed at certain time points after injection by ELISA assay (FIG. 19).

B1: SEQ ID NO: 125: dimeric EGFR-specific TRAIL fusion protein with albumin binding domain (ABD) between component A and component B (protein)
chain: MDWTWRVFCLLAVAPGAHSLEASDYKDDDDKGAEVQLVESGGGLVQPGGSLRLSCAASGFSLTNYGVHWVRQAPGKGLEWLGVIWSGGNTDYNTPFTSRFTISRDNSKNTLYLQMNSLRAEDTAVYYCARALTYYDYEFAYWGQGTTVTVSSGGGGSDIQLTQSPSFLSASVGDRVTITCRASQSIGTNIHWYQQKPGKAPKLLIKYASESISGVPSRFSGSGSGTEFTLTISSLQPEDFATYYCQQNNNWPTTFGAGTKLEIKRGGSQHDEAVDANSLAEAKVLANRELDKYGVSDYYKNLINNAKTVEGVKALIDEILAALPAAAGNGTSNGTSEFTRGTSEETISTVQEKQQNISPLVRERGPQRVAAHITGTRGRSNTLSSPNSKNEKALGRKINSWESSRSGHSFLSNLHLRNGELVIHEKGFYYIYSQTYFRFQEEIKENTKNDKQMVQYIYKYTSYPDPILLMKSARNSCWSKDAEYGLYSIYQGGIFELKENDRIFVSVTNEHLIDMDHEASFFGAFLVGGGGSGGGSTSEETISTVQEKQQNISPLVRERGPQRVAAHITGTRGRSNTLSSPNSKNEKALGRKINSWESSRSGHSFLSNLHLRNGELVIHEKGFYYIYSQTYFRFQEEIKENTKNDKQMVQYIYKYTSYPDPILLMKSARNSCWSKDAEYGLYSIYQGGIFELKENDRIFVSVTNEHLIDMDHEASFFGAFLVGGGGSGGGSTSEETISTVQEKQQNISPLVRERGPQRVAAHITGTRGRSNTLSSPNSKNEKALGRKINSWESSRSGHSFLSNLHLRNGELVIHEKGFYYIYSQTYFRFQEEIKENTKNDKQMVQYIYKYTSYPDPILLMKSARNSCWSKDAEYGLYSIYQGGIFELKENDRIFVSVTNEHLIDMDHEASFFGAFLVG
modifications: VH-VL(EGFR)-ABD-Glyco-scTrail
As for B1, the albumin binding result in data set [1] and in data set [2] was “verified” each time. The “bioactivity compared to SEQ ID NO: 102” value in data set [3] is listed as “bioactivity comparable to the dimeric TRAIL fusion protein lacking an ABD”. Besides, the “in vivo serum half-life” value in data set [4] is on record as “about 20 hours”.
